Bioassay records: PubChem, National Center for Advancing Translational Sciences (NCATS)
GALK inh = inhibitors of human galactokinase; Purified GALK, Kinase-Glo residual ATP luminescence; 270,000 tested, 0.007% active; Potency, µM (titrated, usually from 57.5 µM), without a hit: top-dose activity change, negative = inhibition, hits mostly inhibitors; further: potency means the concentration at half of the fitted maximal effect; on the % scale 0 is the no-effect control and ±100 the full control effect
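Kinase-Glo Plus luminescence measured ATP left after a 1 h room-temperature reaction. The reaction used 5 nM GALK, 100 uM galactose and 35 uM ATP at pH 8.0 (20 mM HEPES, 5 mM MgCl2, 60 mM NaCl, 1 mM DTT, 0.01% BSA).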
PI4K2A inh = PI4K2A (human) kinase inhibition | Q9BTU6 | purified PI4K2A, ADP-Glo luminescence, 1 h; hits give low values | activity change, negative = inhibition, % at 76.9 µM | 420,000 tested, 0.13% active | AID 1346378; in the data active means activity change below about -50%; inconclusive means mostly about -30% to -49%;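 further: -100% = wells without enzyme as full effect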
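Compounds are screened against recombinant PI4K2A using PI as substrate and ATP, the latter dispensed at 300 microM. Reactions run one hour at ambient temperature before ADP-Glo detection; full inhibition defined by wells lacking enzyme.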
miR-21 reporter = raises the signal of a miR-21 reporter | HeLa miR-21 FLuc reporter, luciferase, 48 h | Potency, µM (doses to about 38.3 µM), for the others: at the highest dose reporter change, positive = more light | 340,000 tested, under 10 active | AID 2288; active = well fitted rising curve with a large enough effect; inconclusive = small, poorly fitted or top-dose-only effect; inactive = no such curve, though single readings can be large or run the other way;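 also: % of control where 0% means no effect; miR-21 action dims this reporter so a rising signal means less miR-21 action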
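HeLa cells stably expressing CMV-driven firefly luciferase with a downstream miR-21 binding sequence, endogenously expressing miR-21, were treated with titrations (up to about 40uM final) for 48 hours at 37 degree Celsius. Luciferase luminescence was read after lysis.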
Nrf2 block = Nrf2 pathway inhibition; A549 ARE-Fluc reporter, luciferase luminescence, 18-24 h; Potency, µM (highest dose often 46 µM), without a hit: top-dose activity change, negative = inhibition, usual class: inhibitors; 360,000 tested, 2.1% active; AID 504444; further: potency means the concentration at half of the fitted maximal effect; on the % scale 0 is the no-effect control and ±100 the full control effect; nearly all actives have a fitted effect of over 60% in size
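A549 ARE_Fluc cells, 5000/well, 5% FBS OPTI-MEM; compounds in dose-response, 18-24 h at 37 °C/5% CO2; CellTiter-Fluor viability read (Ex 405/Em 525), then BugLite luciferase luminescence = Nrf2 activity.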
A549 tox-1 = A549 cytotoxicity, counter-screen for Nrf2 inhibitors; A549 ARE-Fluc cells, CellTiter-Fluor viability, 18-24 h; Potency, µM (titrated, usually from 46 µM), inactives show at the top dose activity change, negative = cytotoxicity, hits mostly inhibitors; 390,000 tested, 0.16% active; AID 504648; further: potency means the concentration at half of the fitted maximal effect; on the % scale 0 is the no-effect control and ±100 the full control effect
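A549 ARE-Fluc cells in 5% FBS OPTI-MEM, 5000 cells/well, rested 2 h then exposed to compounds in concentration-response for 18-24 h at 37 °C. Viability by CellTiter-Fluor fluorescence (Ex 405/Em 525) after 30 min; luciferase luminescence (BugLite, 15 min, RT) read afterwards.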
Nrf2 ARE act = activators of Nrf2 (ARE) signaling. AID 624171. AREc32 ARE-luciferase reporter (MCF7-derived line), luminescence, 24 h. Potency, µM (top dose mostly 46.1 µM), without a hit: at the top dose activation, hits mostly activators. 410,000 tested, 0.31% active; further: potency means the concentration at half of the fitted maximal effect; % of control where 0% means no effect; nearly all actives have a fitted effect of over 65% in size
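ARE-driven firefly luciferase activity in AREc32 cells measured after a 24 hr compound exposure at 37 deg C, using Steady-Glo reagent and a 30 min room-temperature hold.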
FLuc counter 3 = blocks purified firefly luciferase in Nrf2 counterscreen; purified firefly luciferase, luminescence inhibition; Potency, µM (top dose mostly 57.5 µM), without a hit: at the highest dose activity change, negative = inhibition, usual class: inhibitors; AID 720522; 1,400 tested, 4% active; shares compounds with Nrf2 block; further: potency means the concentration at half of the fitted maximal effect; on the % scale 0 is the no-effect control and ±100 the full control effect; nearly all actives have a fitted effect of over 65% in size
A549 tox-2 = counter-screen for Nrf2 inhibitors: cytotoxicity in A549 ARE cells. shares compounds with Nrf2 block. A549 ARE-Fluc cells, cytotoxicity counterscreen. Potency, µM (top dose mostly 46.1 µM), inactives show at the top dose activity change, negative = cytotoxicity, actives largely listed as inhibitors. 1,400 tested, 2% active. AID 720523;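 further: potency means the concentration at half of the fitted maximal effect; cells exposed to compounds for 18 to 24 hours; on the % scale 0 is the no-effect control and ±100 the full control effect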
Nrf2 ARE inh = confirmation of Nrf2 inhibitors in A549 ARE reporter cells. 1,400 tested, 74% active. AID 720524. A549 ARE-firefly luciferase reporter, luminescence. Potency, µM (series often up to 46.1 µM), inactives show at the top dose activity change, negative = inhibition, most hits filed as inhibitors. shares compounds with Nrf2 block; further: potency means the concentration at half of the fitted maximal effect; on the % scale 0 is the no-effect control and ±100 the full control effect; nearly all actives have a fitted effect of over 65% in size
Numbers without * were called inactive; ? = inconclusive; · = no result shown. Hits are enriched below; roughly 2.2% of the tested compounds scored in any of these assays. Unless noted, the call rests on the fitted dose curve; in most records, active means well fitted curve in the direction sought with a large enough effect; inconclusive means small, poorly fitted or top-dose-only effect, or another doubt; inactive means no such curve, though single readings can be large; an effect the other way counts as inactive or inconclusive.

SMILES	GALK inh	PI4K2A inh	miR-21 reporter	Nrf2 block	A549 tox-1	Nrf2 ARE act	others
CCC(C)N1C(=O)S/C(=C/c2ccc3c(c2)n(C)c(=O)n3C)C1=O (stereo unspecified)	-1%	0	-4%	?	-11%	3%
Cc1cc2n(n1)C(c1ccc(O)cc1)Nc1ccccc1-2 (stereo unspecified)	7%	-6	-1%	18µM*	·	1%
COC(=O)CSc1nnc(-c2sc3ccccc3c2Cl)o1	0%	-4	10%	16µM*	-16%	-2%
CC(=O)Nc1ccc(-c2csc(NC(=O)Cc3cccc(F)c3)n2)cc1	-3%	4	17%	21µM*	3%	5%
CC(=O)Nc1ccc(-c2csc(NC(=O)Cc3ccccc3F)n2)cc1	0%	1	-3%	?	-14%	7%
CS(=O)(=O)N1CCc2cc(-c3csc(NC(=O)Cc4ccccc4)n3)ccc21	-3%	-3	?	21µM*	-19%	3%
CCOC(=O)CSc1nc2cc(OC)c(OC)cc2cc1C#N	·	·	·	2%	-3%	·
COc1cc(-c2nnc3sc(C4CCCCC4)nn23)cc(OC)c1OC	1%	13	8%	13µM*	0%	0%
O=C(O[C@@H]1Cc2c(O)cc(O)cc2O[C@@H]1c1cc(O)c(O)c(O)c1)c1cc(O)c(O)c(O)c1	10µM*	·	0%	·	·	·
O=S(=O)(c1ccc2c(c1)OCCO2)N1CCN(S(=O)(=O)c2c(F)ccc(O)c2F)CC1	·	·	·	-12%	7%	·

Continued (four carried over from the part before).
SMILES	GALK inh	PI4K2A inh	miR-21 reporter	Nrf2 block	A549 tox-1	Nrf2 ARE act	others
CCOC(=O)CSc1nc2cc(OC)c(OC)cc2cc1C#N	·	·	·	2%	-3%	·
COc1cc(-c2nnc3sc(C4CCCCC4)nn23)cc(OC)c1OC	1%	13	8%	13µM*	0%	0%
O=C(O[C@@H]1Cc2c(O)cc(O)cc2O[C@@H]1c1cc(O)c(O)c(O)c1)c1cc(O)c(O)c(O)c1	10µM*	·	0%	·	·	·
O=S(=O)(c1ccc2c(c1)OCCO2)N1CCN(S(=O)(=O)c2c(F)ccc(O)c2F)CC1	·	·	·	-12%	7%	·
CN(Cc1ccccc1)S(=O)(=O)c1cccc(C(=O)OCc2cccc([N+](=O)[O-])c2)c1	·	-5	·	·	·	·
CCOC(=O)N1CCN(C(=O)c2ccc3c(=O)n(Cc4ccc(Cl)cc4)c(=S)[nH]c3c2)CC1	-1%	-2	-2%	?	-8%	1%
CCOC(=O)N1CCN(C(=O)c2ccc(Cn3c(=S)[nH]c4ccc(Br)cc4c3=O)cc2)CC1	6%	4	2%	4.1µM*	?	0%	FLuc counter 3=-18%;A549 tox-2=?;Nrf2 ARE inh=8.2µM*
CN(Cc1ccccc1)S(=O)(=O)c1cccc(C(=O)OCc2cccc(C(F)(F)F)c2)c1	·	2	·	·	·	·
CC(=O)c1sc(NC(=O)C2(F)C(F)(F)C(F)(F)C(F)(F)C(F)(F)C2(F)F)nc1C	2%	1	?	5.8µM*	?	7%	FLuc counter 3=?;A549 tox-2=?;Nrf2 ARE inh=6.5µM*
CCC(C)NC(=O)CSc1nnc(-c2cc(OC)c(OC)c(OC)c2)o1 (stereo unspecified)	·	-3	·	·	·	·
N=c1ccn2c(n1)OC1C(O)[C@@H](CO)O[C@H]12 (stereo partly specified)	·	·	·	0.16µM*	2%	·	FLuc counter 3=-2%;A549 tox-2=-1%
O=c1ccncn1C1OC(CO)C(O)C1O (stereo unspecified)	·	-4	·	11%	-5%	2%
Cc1cc(C)cc(NS(=O)(=O)c2ccc3c(c2)c(=O)n(C)c(=O)n3C)c1	-4%	2	?	8.2µM*	-22%	-1%	FLuc counter 3=2%;A549 tox-2=-13%;Nrf2 ARE inh=7.3µM*
